Only a part is listed here, and it is no random draw. Calls of active or inactive are those of the source. Rule as the data show it: active = activation mostly above about 9.5% (no sharp cut-off); inactive = mostly below about 7.6%.
Biological target: 5-hydroxytryptamine receptor 5A (Homo sapiens) (UniProt P47898)
Test: HTR5A agonists in luminescence cell assay, primary screen, counter-screen for OPRM1-OPRD1 heterodimer agonist project, full-deck HTS (AID 504692);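 also: 0% = cells with vehicle only and 100% = reference agonist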
Details: cell-based, at 9.3 µM, active compounds read high

By UniProt entry, the sequences of proteins in these tests, tags left out.
UniProt P47898, whole entry, looked up: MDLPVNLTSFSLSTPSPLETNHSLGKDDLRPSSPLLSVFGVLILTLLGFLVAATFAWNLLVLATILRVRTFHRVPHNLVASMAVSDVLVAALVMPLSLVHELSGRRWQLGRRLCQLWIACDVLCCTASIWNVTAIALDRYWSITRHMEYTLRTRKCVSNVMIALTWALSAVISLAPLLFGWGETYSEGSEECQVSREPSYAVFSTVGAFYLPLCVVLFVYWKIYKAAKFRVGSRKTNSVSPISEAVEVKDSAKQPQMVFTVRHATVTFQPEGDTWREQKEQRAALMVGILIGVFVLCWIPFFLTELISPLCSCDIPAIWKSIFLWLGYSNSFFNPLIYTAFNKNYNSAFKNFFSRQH

Compound	activation
CCC1=CC2Cc3nc4ccc(Cl)cc4c(N)c3C(C1)C2 (stereo not given)	inactive: -0.06%
COc1cccc(CNC(=O)CCCCCNC(=O)N2CCn3c2nc2ccccc23)c1	inactive: 0.44%
O=P1(Nc2ccccn2)COc2ccccc2OC1	inactive: -1.81%
Cn1c(=O)c2c(ncn2CC(=O)N2CCCc3ccccc32)n(C)c1=O	inactive: -5.24%
O=C(Cn1c(-c2cscn2)nc2ccccc21)Nc1ccc2ccccc2c1	inactive: 1.8%
CC(NC(=O)Cn1c(NCCO)nc2ccccc21)C1CC2CCC1C2 (stereo not given)	inactive: -3.72%
O=C(Cn1c(NCCO)nc2ccccc21)NCCc1ccc(F)cc1	inactive: -5.49%
CCN(CC)CCn1c(NCc2cccc(OC)c2)nc2ccccc21	inactive: 3.41%
CC(C)(C)NC(=O)Cn1c(=O)n(CC(=O)NC(C)(C)C)c2ccccc21	inactive: -3.54%
CCOP(=O)(NC(=NC(C)c1ccccc1)NC(C)c1ccccc1)OCC (stereo not given)	inactive: 8.08%
CCCCNC(=O)CC1C(=O)N(Cc2ccccc2)C(C)c2nc3ccccc3n21 (stereo not given)	inactive: 0.81%
O=C(Cn1c(SCc2ccccc2)nc2ccccc21)N1CCOCC1	inactive: -2.67%
Cn1c(=O)c2c(ncn2CC(=O)N2CCN(c3ccc(F)cc3)CC2)n(C)c1=O	inactive: -0.91%
COc1ccc(/C=N/NC(=O)Cn2c(Cc3ccc(OC)c(OC)c3)nc3ccccc32)cc1OC	inactive: -2.26%
Clc1n[nH]nc1-c1nn[nH][15n]1	inactive: -5.03%
NNC(=O)Cn1c(-c2nonc2N)nc2ccccc21	inactive: 4.44%
Cc1ccc(CSc2nc3ccncc3n2CC(=O)Nc2cc(C)cc(C)c2)cc1	inactive: 7.63%
COc1ccc(CNC(=O)Cn2cnc3c(SC)nc(N)nc32)cc1	inactive: 2.17%
O=C(Cn1c(C(F)(F)F)nc2ccccc21)Nc1ccccc1C(=O)O	inactive: -3.74%
CN(C)CCn1c(NC(=O)c2ccc(Cl)cc2)nc2ccccc21	inactive: 5.64%
COc1ccc(OCC(O)Cn2c(=N)n(CCN3CCOCC3)c3ccccc32)cc1 (stereo not given)	inactive: 1.05%
Cc1cc(C)cc(NC(=O)Cn2c(-c3ccccc3Cl)nc3ccccc32)c1	inactive: 1%
O=C(NCCn1c(C(F)(F)F)nc2cc(C(F)(F)F)ccc21)[C@H]1CCCN1c1nc(CN2CCCCC2)cs1	inactive: 6.27%

Compound	activation
C[C@H](O)[C@@H]1C(=O)N2CCc3ccc(N4CCOCC4)cc3[C@@H]2C[C@@H]1N(C)C(=O)C(C)(C)C	inactive: -3.22%
Cn1c(=O)c2c(ncn2CC(=O)Nc2nnc(Cc3ccccc3)s2)n(C)c1=O	inactive: -1.33%
CCCC(=O)Nc1nnc(/C=C/c2ccccc2)s1	inactive: 1.86%
Cn1c(=O)c2ncn(CC(=O)Nc3cc(C(F)(F)F)ccc3N3CCOCC3)c2n(C)c1=O	inactive: -3.52%
CC(C)(C)C(=O)NC(Sc1ncccn1)C(Cl)(Cl)Cl (stereo not given)	inactive: 5.08%
S=C(Nc1ccccc1)N1CCn2c(nc3ccccc32)C1	inactive: 0.79%
Brc1cccc(CNc2nc3ccccc3n2CCN2CCOCC2)c1	inactive: 2.18%
Cc1ccc(CNC(=O)CCCCCNC(=O)N2CCn3c2nc2ccccc23)cc1	inactive: 0.61%
CCOCCn1c(=O)c2c(nc3n2CCN3c2ccc(CC)cc2)n(C)c1=O	inactive: 3.92%
COc1cc(Cl)c(C)cc1NC(=O)Cn1c(NCCO)nc2ccccc21	inactive: 4.92%
Cc1cc(N2C(=O)CC(N3CCC(n4c(=O)[nH]c5ccccc54)CC3)C2=O)no1 (stereo not given)	inactive: 3.21%
CC(C)NC(=O)Cn1c(SCC(=O)N2CCc3ccccc3C2)nc2ccccc21	inactive: -0.1%
Cc1ccc2c(c1)C1CN(C)CCC1N2C(=S)Nc1cccnc1 (stereo not given)	inactive: -0.06%
FC(F)(F)c1cccc(-n2nnnc2C2(N3CCOCC3)CCCCC2)c1	inactive: -0.94%
N#CCC(=O)N/N=C\c1ccc(OC/C=C/c2ccccc2)cc1	inactive: 0.8%
CN1CCC2(CC1)Nc1nc(SCc3ccc(Cl)cc3)nn1C1=C2CN(C)CC1	inactive: 3.22%
Cc1ccc(SCc2nc3ccccc3n2CC(=O)Nc2ccc(Cl)cc2)cc1	inactive: 3.69%
CCN(CC)C(=O)N1CCn2c(nc3ccccc32)C1	inactive: 9.48%
O=P1(Nc2ncccn2)COc2ccccc2OC1	inactive: 0.07%
Cn1c(=O)[nH]c(=O)c2c1nc(N1CCOCC1)n2CCN1CCOCC1	inactive: -0.19%
Cc1ccc2c(c1)C1CN(C)CCC1N2C(=O)c1ccc(Br)o1 (stereo not given)	inactive: 0.61%
COC(=O)CSc1nc2ccccc2n1CC(=O)N(C(C)C)C(C)C	inactive: 1.32%

Source: PubChem BioAssay AID504692 (The Scripps Research Institute Molecular Screening Center, 2011)
